High-throughput results from PubChem.
S-ASM inh: inhibitors of human secretory acid sphingomyelinase; placental ASM, HMU-PC fluorogenic substrate, 60 min; Potency, µM (titrated, usually from 57.5 µM), hits mostly inhibitors; 340,000 tested, 0.006% active; AID 504937
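HMU-PC0 cleavage (9 uM final) by human placental ASM, 60 min at 37 °C following 10 min compound exposure at RT; stopped at pH 10, fluorescence Ex 386/Em 447 nm.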
miR-21 reporter: raises the signal of a miR-21 reporter. Potency, µM (highest dose often 38.3 µM). 340,000 tested, under 10 active. HeLa miR-21 FLuc reporter, luciferase, 48 h; active = well fitted rising curve with a large enough effect; inconclusive = small, poorly fitted or top-dose-only effect; inactive = no such curve, though single readings can be large or run the other way;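 further: miR-21 action dims this reporter so a rising signal means less miR-21 action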
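HeLa cells endogenously expressing miR-21, stably carrying CMV-driven firefly luciferase with a downstream miR-21 binding site, 2000 cells/well. Titrations up to approximately 40 uM, 48 hours; luciferase luminescence read.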
GALK inhibitor: blocks human galactokinase activity; Purified GALK, Kinase-Glo residual ATP luminescence; Potency, µM (titrated, usually from 57.5 µM), most hits filed as inhibitors; 270,000 tested, 0.007% active; AID 1868
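Luminescence from leftover ATP (Ultra-Glo luciferase/luciferin) served as read-out after a 1 h room-temperature reaction of 5 nM GALK with 35 uM ATP and 100 uM galactose.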
PI4K2A inh: inhibitors of human PI4K2A. 420,000 tested, 0.13% active. purified PI4K2A, ADP-Glo luminescence, 1 h; stronger effect = lower value. activity change, negative = inhibition, % at 76.9 µM; in the data active = activity change below about -50%; inconclusive = mostly about -30% to -49%
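PI4K2A activity was measured by ADP-Glo luminescence: enzyme (4 ug/mL stock) and phosphatidylinositol (1.2 mM stock) in Tris pH 7.5/MgCl2/EGTA/Triton X-100 buffer were reacted with ATP (300 microM stock) for one hour at ambient temperature.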
Numbers stand for hits; i = inactive; ? = inconclusive; nt = not tested or not shown. Hits are enriched below; roughly 0.14% of the tested compounds scored in any of these assays. Unless noted, calls come from the whole dose curve; as a rule, active = well fitted curve in the direction sought with a large enough effect; inconclusive = small, poorly fitted or top-dose-only effect, or another doubt; inactive = no such curve, though single readings can be large; an effect the other way counts as inactive or inconclusive.

SMILES	S-ASM inh	miR-21 reporter	GALK inhibitor	PI4K2A inh
CCCCN(C)C(=O)c1cc2cc3ccc(OC)cc3nc2s1	i	i	i	-55.3
Cc1cc2c(cc1CC(=O)c1sccc1S(=O)(=O)Nc1onc(C)c1Cl)OCO2	nt	nt	nt	i
Cc1ccc(-n2nnc(-c3cccnc3)n2)cc1	i	nt	nt	i
Cc1ccc(-n2nnc(-c3nccn3C)n2)cc1	i	i	i	-52.5
Cc1ccc(C(C)OC(=O)C2(C)CCC(C(=O)O)C2(C)C)cc1 (configuration not stated)	nt	nt	nt	i
Cn1nc(-c2ccc(Cl)cc2)nc2c(=O)n(C)c(=O)nc1-2	nt	?	1.12µM	nt
CCCCCCCCCCCCOCCO	nt	nt	nt	i
CC1CC(=O)NN=C1c1ccc(NCC(C)(C)NCC(O)COc2cc(Cl)ccc2C#N)cc1 (configuration not stated)	nt	nt	nt	i
CSc1ccccc1C(=O)Nc1nc2ccccc2[nH]1	i	i	i	i
COc1ccccc1C(=O)Nc1nc2ccccc2[nH]1	i	?	?	-90.8
COc1cc(SC)ccc1C(=O)Nc1nc2ccccc2[nH]1	i	?	i	-74.3
O=C(c1ccc(F)cc1)c1cc2ccc(O)cc2oc1=O	i	i	i	-87.5
COc1ccc(N(C)C(=O)Nc2ccc3nsnc3c2)cc1	i	i	i	i
CC(C)N(C(=O)Nc1ccc2nsnc2c1)C(C)C	i	i	i	-68.1
CCCCC(CC)CNC(=O)CC(C)OC(=O)CCC(=O)O (configuration not stated)	nt	nt	nt	i
Cc1cc(CCCOc2c(C)cc(-c3noc(C(F)(F)F)n3)cc2C)on1	nt	nt	nt	i
CCOc1c(N2CCOCC2)cnn(C)c1=O	nt	nt	nt	i
CN(C)CCNc1ccc2nnn3c4ccc(O)cc4c(=O)c1c23	i	nt	nt	i
CCN(CC)CCCNc1ccc2ncn3c4ccc(O)cc4c(=O)c1c23	i	nt	nt	-50.4
O=C(O)c1cccc(N2C(=O)c3cc([N+](=O)[O-])cc4cc([N+](=O)[O-])cc(c34)C2=O)c1	i	i	i	-67.2
O=C(N=Nc1c(O)[nH]c2ccccc12)c1cc(NS(=O)(=O)c2cccs2)cc(NS(=O)(=O)c2cccs2)c1	i	i	i	-51.1
CCn1c(C)nc2cc(-c3nc4n(n3)Cc3ccccc3-4)ccc21	i	?	i	-68.9
Nc1c(I)cc(I)c(C(=O)N(CCC(=O)O)c2ccccc2)c1I	nt	nt	nt	i
COc1cc(C=C2C(=O)C=CC2=O)ccc1O	nt	nt	nt	-56.3
CCc1ccc(S(=O)(=O)/N=C2/C=C(Sc3ncn[nH]3)C(=O)c3ccccc32)cc1	i	?	i	-56.3
SMILES	S-ASM inh	miR-21 reporter	GALK inhibitor	PI4K2A inh
COc1cc(SC#N)ccc1N=Cc1c(C)[nH]n(-c2cccc3ccccc23)c1=O	i	i	i	-52.6
COc1ccccc1N=Cc1c(C)[nH]n(-c2ccc(C)cc2C)c1=O	i	i	i	i
COc1cc(SC#N)ccc1N=Cc1c(C)[nH]n(-c2ccc(C)cc2C)c1=O	i	i	i	-53.6
O=C(Nc1ccc(F)cc1)Nc1ccc(N2CCOCC2)c2nonc12	i	i	i	-58.6
Nc1ccc(N2CCOCC2)c2nonc12	i	i	i	-59.8
Cc1cccc(-n2c(C)cc(/C=C3/C(=N)N4C(c5ccccc5)=CSC4=NC3=O)c2C)c1	i	i	i	i
COc1cc(/C=C2/C(=N)N3C(c4ccccc4)=CSC3=NC2=O)ccc1OCC(=O)O	2.51µM	i	nt	i
Cc1nc2ccc3nc(NC(=O)C4COc5ccccc5O4)sc3c2s1 (configuration not stated)	i	i	i	i
Cc1nc(C2COc3ccccc3O2)sc1C(=O)O (configuration not stated)	i	i	i	-63.0
CCC(=O)Oc1ccc(-c2cnc3ccccc3n2)cc1	i	i	i	-65.1
O=C(Oc1ccc(-c2cnc3ccccc3n2)cc1)c1ccco1	i	i	i	-77.3
O=C(Nc1cccc(-c2cnc3ccccc3n2)c1)c1ccco1	i	i	i	i
CCC(=O)Oc1ccc(-c2nc(-c3cccnc3)no2)cc1	i	?	i	-55.2
Cc1c(C(=O)Oc2ccc(-c3cnc4ccccc4n3)cc2)cccc1[N+](=O)[O-]	i	i	i	i
Cc1ccc(-c2nc(-c3cccnc3)no2)cc1	i	i	i	i
Cc1c(C)c2c(c(C)c1OC(=O)CCC(=O)OCCO)CC[C@@](C)(CCC[C@H](C)CCC[C@H](C)CCCC(C)C)O2	nt	nt	nt	i
COC(=O)c1cc(C)nc2c1C(=O)C(=O)C=C2N1CCOCC1	i	?	7.08µM	-83.1
COc1ccc2cc3cc(C(=O)NCc4ccco4)oc3nc2c1	i	i	i	i
COc1ccc2cc3c(N)c(C(=O)NCc4ccco4)sc3nc2c1	i	i	i	-56.8
COc1ccc(OCc2cccc(C(=O)O)c2)cc1	i	i	i	?
CCOc1ccc(OCc2cccc(C(=O)O)c2)cc1	i	i	i	-58.1
Cc1[nH]cnc1-c1ccc(Cl)cc1	nt	nt	nt	i
C[C@]12CCC(=O)C=C1[C@@H]1C[C@@H]1[C@H]1[C@@H]3[C@@H]4C[C@@H]4[C@@]4(CCC(=O)O4)[C@@]3(C)CC[C@@H]12	nt	nt	nt	i
CC(=O)N(c1ccc2oc(=O)sc2c1)S(=O)(=O)c1ccc(C(=O)O)cc1	i	i	i	i
CCCC(=O)N(c1ccc2oc(=O)sc2c1)S(=O)(=O)c1ccccc1	i	i	i	-50.5
SMILES	S-ASM inh	miR-21 reporter	GALK inhibitor	PI4K2A inh
Cc1c(/C=N/n2cnnc2)c2ccccc2n1CCOc1ccc(Cl)cc1	35.5µM	i	i	i
CCN(CC)c1ccc(/C=C(\C#N)c2ccccn2)cc1	i	i	i	i
N#C/C(=C\c1ccc(C(=O)O)cc1)c1ccccn1	i	i	i	-65.2
CC1(C)O[C@@H]2C[C@H]3[C@@H]4CCC5=CC(=O)C=C[C@]5(C)[C@@H]4[C@@H](O)C[C@]3(C)[C@]2(C(=O)CO)O1	nt	nt	nt	i
COc1ccc(-n2nc(CCC(=O)N(C)O)cc2-c2ccc(Cl)cc2)cc1	nt	nt	nt	i
COC1=C(N)C(=O)c2nc(-c3nc(C(=O)O)c(C)c(-c4ccc(OC)c(OC)c4O)c3N)ccc2C1=O	i	?	8.91µM	?
COC(=O)c1cc(Cl)ccc1OC	nt	nt	nt	i
CN(C)c1ccc(NC2=C([N+](=O)[O-])CS(=O)(=O)C2)cc1	i	i	i	-63.1
CC1Oc2ccccc2N(CC(=O)N(Cc2ccccc2)Cc2ccccn2)C1=O (configuration not stated)	i	i	i	-71.2
Cc1nnc(NC(=O)C2CC(=O)N(c3ccc4c(c3)OCCO4)C2)s1 (configuration not stated)	i	nt	nt	i
O=C(Nc1nc(-c2ccco2)c(-c2ccco2)s1)C1CC(=O)N(c2ccc3c(c2)OCCO3)C1 (configuration not stated)	i	i	i	-56.0
COc1ccc(-c2nc3ccccn3c2CN2CCN(c3ccccc3F)CC2)cc1	i	i	i	i
COc1ccc(-c2nc3ccccn3c2Cl)cc1	i	i	i	-51.7
CC(C)C(=O)Nc1cccc(C(F)(F)F)c1	nt	nt	nt	i
O=C(Nc1cccc(C(F)(F)F)c1)c1ccc2nc(-c3ccco3)c(-c3ccco3)nc2c1	i	i	i	-52.9
COC(=O)c1ccc(NC(C)=O)cc1OC	nt	nt	nt	i
